We go through one molecule from patent US6271266A, “Use of idebenone and analogues against β amyloid induced cytotoxicity” (Takeda Chemical Industries, Ltd., priority 1996, dated 2001).

The data set is described as follows: in vivo. The note with it: rat, acute toxicity LD50, rats.

Consider `COC1=C(OC)C(=O)C(CCCCCCCCCCO)=C(C)C1=O` [idebenone, 6-(10-hydroxydecyl)-2,3-dimethoxy-5-methyl-1,4-benzoquinone], for which the median lethal dose (LD50) runs as follows: (females) around 10000 mg/kg; (males) at least 10000 mg/kg.

In general, LD50 refers to the dose at which mortality reaches 50%. A high value points to a less toxic substance.
